Measured values as given in PMC7002685, “Inhibition of vascular calcification by inositol phosphates derivatized with ethylene glycol oligomers” (Nature Communications, 2020).
Where “and” joins values, the source holds several entries; their conditions need not be identical. Equal values may be shown once. Blank lines part the entries; values can stand above or below the compound they belong to.

Tests used:
[1] = tested on: transformation of CPP1 to CPP2 in pooled human serum; test: In vitro serum calcification propensity (T50) screening assay; format: biochemical; parameters: key: T50 in minutes (time to 50% CPP phase transition)
[2] = tested on: CPP2; test: Competitive 18F-NaF binding assay on CPPs; parameters: species or system human; conditions: concentration 25 (unit not given)

Compound: O=P(O)(O)O[C@H]1[C@H](OP(=O)(O)O)[C@@H](OP(=O)(O)O)[C@H](OP(=O)(O)O)[C@@H](OP(=O)(O)O)[C@H]1OP(=O)(O)O [IP6, myo-Inositol hexakisphosphate]
T50 ([1]; 0.3 µM, individual experiments, Fig. 2a): 232.833 min | T50 ([1]; 2 µM, individual experiments, Fig. 2a): 232.25 min | T50 ([1]; 3 µM, individual experiments, Fig. 2a): 231.233 min and 231.267 min and 231.333 min | T50 ([1]; 10 µM, individual experiments, Fig. 2a): 232.967 min | T50 ([1]; concentration 2 μM, one value per experiment): 232.25

18F-NaF percentage binding to CPP2 [2]: 114.164%
Compound: NCCCC(O)(P(=O)(O)O)P(=O)(O)O [Alendronate, alendronate]
